Measured values taken from article PMC3639985, “Differential Ligand Binding Affinities of Human Estrogen Receptor-α Isoforms” (PLoS ONE, 2013).

Amino acid sequences for entries named in this document (tags omitted). Residues count along the entry.
UniProt P03372, whole entry: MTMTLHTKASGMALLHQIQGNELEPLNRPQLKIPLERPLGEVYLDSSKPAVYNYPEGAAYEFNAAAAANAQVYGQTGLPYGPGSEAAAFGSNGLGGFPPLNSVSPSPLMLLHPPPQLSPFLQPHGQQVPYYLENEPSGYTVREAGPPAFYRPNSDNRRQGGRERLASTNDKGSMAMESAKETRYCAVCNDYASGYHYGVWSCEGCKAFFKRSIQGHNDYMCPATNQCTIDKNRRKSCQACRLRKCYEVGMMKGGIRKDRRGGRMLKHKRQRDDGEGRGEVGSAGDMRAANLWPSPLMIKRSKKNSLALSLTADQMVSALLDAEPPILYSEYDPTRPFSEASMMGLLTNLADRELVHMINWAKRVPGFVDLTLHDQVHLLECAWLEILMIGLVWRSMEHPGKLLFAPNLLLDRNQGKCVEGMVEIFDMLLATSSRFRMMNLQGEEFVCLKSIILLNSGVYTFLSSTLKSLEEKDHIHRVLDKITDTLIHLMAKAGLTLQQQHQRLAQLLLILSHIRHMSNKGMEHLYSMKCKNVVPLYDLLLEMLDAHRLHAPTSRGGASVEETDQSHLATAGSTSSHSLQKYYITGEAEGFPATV
UniProt P03372, 174-595: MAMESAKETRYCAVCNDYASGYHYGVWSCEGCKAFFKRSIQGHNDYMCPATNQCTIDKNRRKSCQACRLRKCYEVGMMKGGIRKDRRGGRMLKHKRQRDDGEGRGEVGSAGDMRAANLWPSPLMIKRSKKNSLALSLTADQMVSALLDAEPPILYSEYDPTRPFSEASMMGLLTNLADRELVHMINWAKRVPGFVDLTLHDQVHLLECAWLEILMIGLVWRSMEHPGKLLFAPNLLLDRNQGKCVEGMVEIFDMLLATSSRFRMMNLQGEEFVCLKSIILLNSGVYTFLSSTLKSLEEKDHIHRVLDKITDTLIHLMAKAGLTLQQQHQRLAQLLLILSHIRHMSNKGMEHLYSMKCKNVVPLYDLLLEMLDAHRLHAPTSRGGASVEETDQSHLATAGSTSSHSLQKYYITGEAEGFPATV

Key:
human ER46 = human ER46 (Homo sapiens, UniProt P03372); experiment: Competitive [3H]-17β-estradiol ligand binding assay, ER46; conditions: ratio of IC50 values of 17β-estradiol and compound; 17β-estradiol set at 100
human ER66 = human ER66 (Homo sapiens, UniProt P03372); experiment: Competitive [3H]-17β-estradiol ligand binding assay, ER66

## CC(=O)c1ccc2c(c1)C1C=CCC1C(c1cc3c(cc1Br)OCO3)N2 (stereo not drawn)
Human ER46
  RBA ER46: 0.003
Human ER66
  RBA ER66: 0.007
Human ER66; read-out: IC50 ER66
  IC50: 0.54 µM
